# The whole screen tested about 130,000 compounds, of which about 1,200 (0.92%) were called active. These results got no clear call from the source, so the numbers are uncertain. The call rests on the fitted dose curve; in most records, active means well fitted cell-killing curve with a large enough effect; inconclusive means small, poorly fitted or top-dose-only effect; inactive means no such curve, though single readings can be large or run the other way.
# Assay: qHTS Screen for Compounds that Selectively Target Cancer Cells with p53 Mutations: Cytotoxicity of p53ts Cells at the Permissive Temperature; further: nearly all actives have a fitted effect of over 55% in size
# Details: H1299-p53A138V at 32C, ATP luminescence viability, 24 h
# Potency means the concentration at half of the fitted maximal effect.
row,Structure (SMILES),Potency
1,Cc1c2non([O-])c-2c(C)[n+](=O)[n+]1[O-],inconclusive: 31.6 µM
2,Cc1cc(SC(NC(=O)c2ccc(F)cc2)C(Cl)(Cl)Cl)ncn1 (stereo not drawn),inconclusive: 0.0794 µM
3,CCc1nc2c(n1)c1c(non1O)c1c2no[n+]1[O-],inconclusive: 31.6 µM

# Source: PubChem BioAssay AID924 (National Center for Advancing Translational Sciences (NCATS), 2007)
